{"source": "patent US9034862B2", "about": "“Compositions and methods for the treatment of cancer” (priority 2011, dated 2015)", "key": {"5′-dGMP": {"system": "5′-dGMP", "conditions": "buffer, pH 7.4"}, "[1]": {"system": "GLuc expression in HT29 cells", "experiment": "Transcription assay, globally platinated pGLuc, HT29", "assay_type": "cell-based, human", "method": "Transfection of transcription probes into A549 and HT29 cells with the pGLuc plasmid was carried out using liposomal transfecting agents. Determination of expression levels was tested by Luciferase assays monitored by a luminometer (J. Am. Chem. Soc. 2010, 132, 7429-7435). A549 cells were plated in 96-well plates at 2,000 cells/well and HT29 cells were plated in 96-well plates at 6,000 cells/well. After 48 h incubation (at ˜30% confluence), cells were transfected with 50 ng of platinated plasmids in 25 μL Opti-MEM and 0.125 μL Lipofectamine 2000, and subsequently 50 μL of antibiotics-free DMEM supplemented with 10% FBS. After 2 h, the cells were washed with medium and 100 μL of fresh medium was added. The experiment was carried out in quadruplicate.\nGLuc activity was monitored using a luminescence plate reader (Synergy 2, BioTek, Winooski, Vt., USA). A 10 μL volume of medium at different time points (12, 24, 36, 48, 60 h) was transferred into opaque white 96-well plates, and 25 μL of GLuc assay solution (10 μM colelenterazine (NanoLight Technologies, Pinetop, Ariz., USA) in 2.5 mM acidified methanol (100 mM HCl), buffer (10 mM Tris-HCl pH 7.8, 1 mM EDTA, 0.6 M NaCl)) was added by the automatic injector of the instrument.\nIn another embodiment, A549 or HT29 cells were transfected using the platinated transcription probes, and transcription levels were investigated by determining GLuc expression as measured by […] following addition of coelenterazine as a substrate for the exported enzyme. The emission intensities were normalized against unplatinated plasmids as a control. Transcription profiles were obtained by plotting normalized levels of GLuc expression against platination levels (Pt/plasmid ratio) at five different time points. […] An increase in D0 value at different time points represents restoration of transcription."}, "[2]": {"system": "Gaussia luciferase expression in human cancer cells", "conditions": "8 hours; NoPt = 100; cell line not stated", "method": "Vector Construction and Preparation. […] Preparation of Platinated Insertion Strand. […] The suspension was centrifuged. To a solution of 0.2 mM 16-mer oligonucleotide 5′-[…]*[…] The reaction mixture was incubated in the dark at 37° C. overnight. The reaction was stopped when the solution was frozen. […] After purification, the platinated DNA solution was dialyzed against H2O and lyophilized. […] The insertion strand was further analyzed for nucleotide composition by nuclease S1 digestion to confirm the platination site following a protocol published previously (Table 13) (e.g., see J Am Chem Soc 2007, 129, 6370-6371). The platinated and unplatinated DNA strands (40 μM) were phosphorylated by T4 PNK (0.67 U/μL) at 37° C. for 3 h, followed by a phenol/chloroform/isoamyl alcohol extraction to remove the enzyme. The phosphorylated DNA strands were ethanol precipitated and stored in −80° C. at a concentration of 100 pmol/μL.\nBriefly, a 600 μg quantity of pGLuc8temG plasmid was digested with 30 U Nt.BbvCI at 37° C. for 1 h. […] A 120 μg quantity of the gapped plasmid was annealed with 100 equiv of the insertion strand in a buffer of 10 mM Tris-HCl, 2 mM MgCl2, 0.4 M NaCl, pH 7.4 from 90° C. to 4° C. at −1° C./min in a thermocycler. […] The plasmids were quantitated by a Quant-iT™ PicoGreen® dsDNA Kit from Invitrogen (Carlsbad, Calif.), and stored in −80° C. in TE buffer (10 mM Tris-HCl, 2 mM EDTA, pH 7.4). […]"}}, "data": [{"molecule": "N.N.O=[N+]([O-])[O-].[Cl][Pt+].c1ccncc1", "note": "[pyriplatin, cis-[Pt(NH3)2(pyridine)Cl]NO3]", "values": [{"measurement": "half-life, reaction with 5′-dGMP", "setting": "5′-dGMP", "value": 2.4, "unit": "h"}]}, {"molecule": "cis-[Pt(NH3)2(phenanthridine)Cl]NO3 [phenanthriplatin]", "values": [{"measurement": "transcription level (normalized against unplatinated plasmid)", "setting": "[1]; HT29, 12 h, Pt/DNA ratio of […] for phenanthriplatin", "value": 28.1, "unit": "%"}, {"measurement": "D0 (Pt lesions per plasmid required to reduce transcription levels to 37% of control)", "setting": "[1]; HT29, 24 h after transfection", "value": 21.1, "unit": "Pt/plasmid"}, {"measurement": "D0 (Pt lesions per plasmid required to reduce transcription levels to 37% of control)", "setting": "[1]; HT29, 36 h after transfection", "value": 21.9, "unit": "Pt/plasmid"}, {"measurement": "Transcription (normalized against unplatinated control)", "setting": "[2]", "value": 24}]}]}
